The results in this text go back to patent publication US12642862B2, “Anti-CD79B antibody-drug conjugate, and preparation method therefor and pharmaceutical use thereof” (TUOJIE BIOTECH (SHANGHAI) CO., LTD., priority 2020, dated 2026).

In series [1] the target is T1, human CD79B (Homo sapiens, UniProt P40259).
T1 sequence (P40259 29-159 limits assumed): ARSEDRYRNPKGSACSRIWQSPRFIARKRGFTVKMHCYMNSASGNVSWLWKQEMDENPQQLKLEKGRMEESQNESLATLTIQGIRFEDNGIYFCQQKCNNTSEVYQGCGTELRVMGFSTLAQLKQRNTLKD
The series can be described thus: Biacore affinity assay of CD79B antibodies and ADCs. On the set-up: His; purchased Sino Biological 29750-H08H. The following applies: binding force to human CD79B protein.

Series [2] has as its system DOHH-2 cells highly expressing human CD79B protein. The series can be described thus: Endocytosis of anti-CD79B antibodies in DOHH-2 cells. Type of series: cell-based. The method, then: In order to determine whether the CD79B antibodies of the present disclosure can be endocytosed into cells with human CD79B after binding to human CD79B, a cell endocytosis experiment was performed with DOHH-2 cells (DSMZ, ACC 47) highly expressing human CD79B protein to assess the endocytosis ability of the antibodies.
The cells were collected by low temperature centrifugation at 4° C. for 5 min at 1000 rpm during the experiment. The cells were resuspended in 10-15 mL of FACS buffer pre-cooled on ice. The FACS buffer was composed of phosphate buffered saline (PBS), pH 7.4, with 2% fetal bovine serum (FBS). Throughout the experiment, FACS buffer was pre-cooled on ice. The cells were counted and centrifuged, and added to a 96-well plate at 300,000 cells/well. After centrifugation, the supernatant was discarded, and 12.5 μg/mL Fc blocking solution (BD, Cat No.: 564220) was added at 100 μL/well. Blocking was performed at room temperature for 10 min. Then, 20 μg/mL test CD79B antibody was added to the corresponding wells, and the plate was incubated at 4° C. for 1 h away from the light. The plate was washed twice with a pre-cooled PBS buffer to remove unbound antibodies. A complete cell culture medium (RPMI 1640 medium with 10% fetal bovine serum) was added, and the plate was incubated at 37° C. with 5% CO2 for 0 h, 1 h, 2 h and 4 h. After centrifugation, the supernatant was discarded, 2% PFA buffer solution was added at 100 μL/well to resuspend the cells, and the plate was left to stand for 10 min. Then, the plate was washed 3 times with an FACS buffer, and 100 μL of secondary antibody solution (fluorescent labeled goat anti-human secondary antibody: diluted in a 1:250 ratio, 2 μg/mL, Biolegend, Cat #409304) was added. The plate was incubated at 4° C. for half an hour away from the light. A pre-cooled PBS buffer was added, and the supernatant was discarded after centrifugation at 4° C., which were repeated three times. The cells were resuspended in an FACS buffer at 200 μL/well and detected using a flow cytometer (BD FACS Calibur).

Series [3] concerns Raji cell. Briefly: Cell killing assay of humanized antibodies, Raji. Type of series: cell-based. From the text:
(§1) The above antibodies were cloned, expressed and purified, and the humanized antibodies hAb015-10 and hAb017-10 with the best activity were selected by ELISA, FACS, SPR and other assays.

In series [4] the test system is DoHH2 cell. Briefly: FACS assay of humanized anti-CD79B antibodies. Type of series: binding, human.
Text: as §1

For series [5], the system named is WSU-DLCL2 cell. The series can be described thus: Cell killing assay of humanized antibodies, WSU-DLCL2. It counts as cell-based, human.
Text: as §1

Series [6] deals with Monkey CD79B-His protein. Briefly: Interspecific cross-reactivity, monkey CD79B. Type of series: binding.
Text: as §1

In series [7] the target is T2, Human CD79B-His protein (Homo sapiens, UniProt P40259).
T2 construct: His tag (HHHHHH) (C); made in house; host or cells: 293F cells
T2 sequence (P40259 29-159): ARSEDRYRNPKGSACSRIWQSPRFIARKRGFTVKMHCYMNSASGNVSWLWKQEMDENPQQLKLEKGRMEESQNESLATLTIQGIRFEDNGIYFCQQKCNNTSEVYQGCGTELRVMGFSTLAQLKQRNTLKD
The series can be described thus: Interspecific cross-reactivity, human CD79B. Type of series: binding.
Text: as §1

Series [8] addresses T3, Mouse CD79B-His protein (Mus musculus, UniProt P15530).
T3 construct: His
T3 sequence (P15530 26-228): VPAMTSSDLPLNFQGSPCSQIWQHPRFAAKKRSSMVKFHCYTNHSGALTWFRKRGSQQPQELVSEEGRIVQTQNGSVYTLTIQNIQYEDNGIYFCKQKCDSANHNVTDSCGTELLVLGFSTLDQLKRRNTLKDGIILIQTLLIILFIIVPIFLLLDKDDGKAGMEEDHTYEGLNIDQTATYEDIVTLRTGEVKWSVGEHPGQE
The series can be described thus: Interspecific cross-reactivity, mouse CD79B. Type of series: binding.
Text: as §1

A short description of series [9]: Thermal stability test (DSC, DLS). Type of series: physicochemical.
Text: as §1

For series [10], the system named is DoHH2 cell. Briefly: Cell killing assay of humanized antibodies, DoHH2. Type of series: cell-based, human.
Text: as §1

Series [11] deals with T2, Human CD79B-His protein. Briefly: SPR assay of anti-CD79B antibodies. Type of series: binding. Here is the method: 7) Assay on anti-human CD79B mouse monoclonal antibodies by SPR The affinity of the anti-human CD79B antibody for its antigen human CD79B-His was assayed by surface plasmon resonance (SPR) technology. The antigen human CD79B-His protein was immobilized to a CM5 chip. The coupling level was set at 100 RU. The running buffer was HBS-EP+ (10 mM HEPES, 150 mM NaCl, 3 mM EDTA, 0.05% surfactant P20). The diluted antibodies were allowed to flow through the experimental and control channels at a flow rate of 30 μL/min for 3 min and dissociated for 5 min. Regeneration buffer (10 mM Glycine, pH 1.5) was then run at a flow rate of 30 μL/min for 30 s. Data were analyzed using Biacore 8K software.
as §1

Series [12] addresses T2, Human CD79B-His protein. The series can be described thus: ELISA assay of humanized anti-CD79B antibodies. It counts as binding.
Text: as §1

B1: hAb015-10: humanized anti-CD79B antibody from mAb015; heavy chain SEQ ID NO: 28, light chain SEQ ID NO: 29 (antibody)
heavy: EVQLVQSGAEVKKPGSSVKVSCKASGSSFSSYGINWVKQAPGQGLEWIGEIFPRSGNTYYNEKFEGRATLTADKSTSTAYMELRSLRSEDTAVYYCAKGDLGDFDYWGQGTTVTVSSASTKGPSVFPLAPSSKSTSGGTAALGCLVKDYFPEPVTVSWNSGALTSGVHTFPAVLQSSGLYSLSSVVTVPSSSLGTQTYICNVNHKPSNTKVDKKV[letters of human IgG1 Fc not shown]
light: DFVMTQTPLSLPVTPGEPASISCRSSQSIVHSDGNTYFEWYLQKPGQSPKLLIYKVSNRFSGVPDRFSGSGSGTDFTLKISRVEAEDVGVYYCFQGSHVPWTFGGGTKVEIKRTVAAPSVFIFPPSDEQLKSGTASVVCLLNNFYPREAKVQWKVDNALQSGNSQESVTEQDSKDSTYSLSSTLTLSKADYEKHKVYACEVTHQGLSSPVTKSFNRGEC
modifications: Heavy chain of hAb015-10 humanized antibody; Light chain of hAb015-10 humanized antibody
Take B1: the figures for the EC50 in series [1], in series [4] and in [12] were 380 pM, 400 pM and 50 pM, respectively. For the same molecule, the “endocytosis by DOHH-2 cells at 4° C.” value in [2] (20 μg/mL antibody, incubation at 4° C.) is given as “cannot be endocytosed by DOHH-2 cells”. For the same molecule, the “endocytosis by DOHH-2 cells at 37° C. after 1 h” value in series [2] (20 μg/mL antibody, incubation at 37° C., 1 h) is listed as “most of the antibodies are already endocytosed by DOHH-2 cells”. The “endocytosis, overall judgement” value in series [2] (DOHH-2 cells) is “good endocytosis”. Also, the “time at which antibody endocytosis reaches a maximum” value in series [2] (incubation at 37° C.) is recorded as 4 h. Also, the IC50 in series [3] is greater than 100000 pM; in [5] it was 13 pM; in series [10] it was 4 pM. Moreover, the Interspecific cross-reactivity result in [6] is recorded as “No”; in [7], “Yes”; in [8] it was “No”. In series [9] (DLS), the “Thermal stability test DLS (Tagg, ° C.)” value stood at 62 °C. For the same molecule, in series [9] (DSC), the “Thermal stability test DSC (Tm, ° C.)” value amounted to 60 °C. The molecule also showed a Kd in series [11] (Human CD79B-His protein) of 1500 pM. Further, the “affinity and related functions compared with the mouse monoclonal antibodies” value in series [11] (by ELISA, FACS, SPR and other assays) was “retained similar affinity and related functions to the mouse monoclonal antibodies”.
